The target in this assay is MAPK14 (UniProt Q16539). The experiment in a line: Assessment of MAPK14 Kinase Activity Using Spectrophotometric Assay.

Chains of the proteins cited; added tags and fusions are not shown.
UniProt Q16539, whole entry, looked up: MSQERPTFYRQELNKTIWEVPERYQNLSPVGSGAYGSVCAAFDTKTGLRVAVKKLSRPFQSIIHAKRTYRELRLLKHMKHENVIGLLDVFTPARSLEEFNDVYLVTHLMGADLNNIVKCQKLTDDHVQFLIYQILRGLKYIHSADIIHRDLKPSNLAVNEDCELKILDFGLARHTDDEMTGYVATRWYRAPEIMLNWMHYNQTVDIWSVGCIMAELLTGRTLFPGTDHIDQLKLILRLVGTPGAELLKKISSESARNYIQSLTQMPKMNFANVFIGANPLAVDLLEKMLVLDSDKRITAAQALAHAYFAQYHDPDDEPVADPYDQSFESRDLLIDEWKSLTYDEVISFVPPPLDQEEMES

The compound `CC(C)(C)c1cc(NC(=O)Nc2ccc(F)cc2F)n(-c2cccc(CC(N)=O)c2)n1` had an IC50 of 41 nM.
For the compound `CCOC(=O)Cc1ccc(-n2nc(C(C)(C)C)cc2NC(=O)Nc2cccc(Cl)c2Cl)cc1`, the 50% inhibitory concentration (IC50) was found to be 11 nM.

For orientation: IC50 means the concentration that gives 50% inhibition. A lower IC50 goes with inhibition by little substance.

For the origin of these results see the Kinase Knowledgebase extract (Sharma et al. 2016).
